Data reported in patent US20230382889A1 (Volastra Therapeutics, Inc., priority 2022, published 2023).
pIC50: −log10 of the molar value.

Amino acid sequences for entries named in this document (tags omitted). Residues count along the entry.
UniProt Q8NI77, 1-374 limits assumed: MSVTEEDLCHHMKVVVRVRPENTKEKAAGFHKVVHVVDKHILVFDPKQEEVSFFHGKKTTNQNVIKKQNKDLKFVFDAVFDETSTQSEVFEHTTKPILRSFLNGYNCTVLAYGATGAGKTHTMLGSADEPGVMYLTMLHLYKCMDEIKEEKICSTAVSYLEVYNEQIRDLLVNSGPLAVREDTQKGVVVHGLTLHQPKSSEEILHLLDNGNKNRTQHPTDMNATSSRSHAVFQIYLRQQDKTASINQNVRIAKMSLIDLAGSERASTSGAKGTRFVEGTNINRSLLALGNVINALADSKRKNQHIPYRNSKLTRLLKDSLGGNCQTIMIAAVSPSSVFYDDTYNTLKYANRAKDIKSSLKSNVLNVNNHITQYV

Target: hKIF18A (1-374) (Homo sapiens (Human), UniProt Q8NI77)
Assay: Inhibition of KIF18A microtubule-dependent ATPase activity (ADP-Glo)
Format: biochemical
Conditions: 4 nM hKIF18A (1-374)

| SMILES | pIC50 |
| --- | --- |
| Cc1cc(-n2cc(-c3ccc(NS(=O)(=O)CCO)cc3N3CCC4(CC3)CC4)nn2)nc(N2C[C@@H]3C[C@H]2CO3)n1 | 7.96 |
| Cc1cc(-n2cc(-c3ccc(NS(=O)(=O)CCO)cc3N3CCC4(CC3)CC4)nn2)nc(N2C[C@H]3C[C@@H]2CO3)n1 | 7.37 |
